Experimental data as given in ChEMBL document CHEMBL3639213, “2,5-disubstituted piperidine orexin receptor antagonists” (2014).

Chains of the proteins cited; added tags and fusions are not shown.
UniProt P56718, whole entry: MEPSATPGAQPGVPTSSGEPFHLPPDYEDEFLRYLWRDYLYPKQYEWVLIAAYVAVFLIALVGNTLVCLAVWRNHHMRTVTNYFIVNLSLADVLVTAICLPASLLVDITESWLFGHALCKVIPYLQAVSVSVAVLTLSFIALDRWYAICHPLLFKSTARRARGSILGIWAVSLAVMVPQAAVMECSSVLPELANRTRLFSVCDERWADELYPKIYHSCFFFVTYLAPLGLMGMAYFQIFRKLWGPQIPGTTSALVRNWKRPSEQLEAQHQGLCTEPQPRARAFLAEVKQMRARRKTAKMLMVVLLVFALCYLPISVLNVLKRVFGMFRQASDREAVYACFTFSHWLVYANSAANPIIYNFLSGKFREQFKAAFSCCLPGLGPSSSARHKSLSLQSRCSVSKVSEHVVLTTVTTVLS

Target: Orexin/Hypocretin receptor type 1 (Rattus norvegicus, UniProt P56718)
Assay: Radioligand Binding Assay: Compound potency can be assessed by a radioligand binding assay (described in Bergman et. al. Bioorg. Med. Chem. Lett. 2008, 18, 1425-1430) in which the inhibition constant (Ki) is determined in membranes prepared from CHO cells expressing either the orexin-1 (OX1) or orexin-2 (OX2) receptor.
Type: cell membranes

## C[C@@H]1CC[C@@H](Oc2nccc3ccccc23)CN1C(=O)c1ccccc1-n1nccn1
  Ki: 3.35 nM
